Measurements from ChEMBL document CHEMBL1129291, “Tyrosine kinase inhibitors. 8. An unusually steep structure-activity relationship for analogues of 4-(3-bromoanilino)-6,7-dimethoxyquinazoline (PD 153035), a potent inhibitor of the epidermal growth factor receptor” (J Med Chem, 1996).

The chains behind the UniProt entries cited, without tags or fusion partners.
UniProt P00533, whole entry: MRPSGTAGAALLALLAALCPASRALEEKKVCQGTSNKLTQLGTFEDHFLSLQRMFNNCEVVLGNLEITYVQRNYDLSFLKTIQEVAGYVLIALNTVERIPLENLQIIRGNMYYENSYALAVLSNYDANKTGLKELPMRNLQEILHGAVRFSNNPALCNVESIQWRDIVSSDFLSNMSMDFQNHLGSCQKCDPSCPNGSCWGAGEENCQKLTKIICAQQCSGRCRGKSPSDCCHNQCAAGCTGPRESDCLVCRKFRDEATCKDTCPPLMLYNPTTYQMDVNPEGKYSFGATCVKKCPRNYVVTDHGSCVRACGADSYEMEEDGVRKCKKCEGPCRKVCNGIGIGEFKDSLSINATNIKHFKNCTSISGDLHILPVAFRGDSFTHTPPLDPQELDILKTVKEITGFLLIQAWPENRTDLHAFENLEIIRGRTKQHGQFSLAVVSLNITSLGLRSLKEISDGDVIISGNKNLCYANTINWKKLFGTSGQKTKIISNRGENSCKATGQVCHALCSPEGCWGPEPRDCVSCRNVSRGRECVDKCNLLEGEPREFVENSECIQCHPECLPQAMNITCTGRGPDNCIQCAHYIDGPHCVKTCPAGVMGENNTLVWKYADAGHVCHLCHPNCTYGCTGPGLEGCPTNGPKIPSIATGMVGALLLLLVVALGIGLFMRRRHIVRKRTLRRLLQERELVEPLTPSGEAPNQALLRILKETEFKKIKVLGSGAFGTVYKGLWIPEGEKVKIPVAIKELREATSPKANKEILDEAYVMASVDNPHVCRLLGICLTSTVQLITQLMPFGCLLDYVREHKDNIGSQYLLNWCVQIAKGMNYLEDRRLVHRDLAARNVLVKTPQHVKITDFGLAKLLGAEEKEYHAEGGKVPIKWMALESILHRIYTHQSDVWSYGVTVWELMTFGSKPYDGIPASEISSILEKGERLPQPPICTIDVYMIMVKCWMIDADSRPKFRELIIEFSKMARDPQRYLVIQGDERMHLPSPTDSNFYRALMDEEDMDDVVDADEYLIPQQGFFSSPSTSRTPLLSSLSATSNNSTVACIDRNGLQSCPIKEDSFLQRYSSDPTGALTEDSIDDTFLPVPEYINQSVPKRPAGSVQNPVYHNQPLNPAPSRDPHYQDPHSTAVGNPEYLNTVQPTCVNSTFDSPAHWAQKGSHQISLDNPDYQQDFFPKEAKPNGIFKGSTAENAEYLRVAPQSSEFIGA

Target: Epidermal growth factor receptor (Homo sapiens, UniProt P00533)
Experiment: Concentration required to inhibit the phosphorylation of a 14-residue fragment of phospholipase C gamma 1 by Epidermal growth factor receptor from A431 cell vesicles

IC50	SMILES
3.8 nM	COc1cc2ncnc(Nc3cccc(F)c3)c2cc1OC
0.31 nM	COc1cc2ncnc(Nc3cccc(Cl)c3)c2cc1OC [TYRPHOSTIN AG-1478]
